Measurements from US20060110401A1, “Mixture of peptides from c and ns3 proteins of the hepatitis c virus and applications thereof” (priority 2002, published 2006).

How the values were obtained:
DR3 = experiment: DR3
DR4 = experiment: DR4
DR7 = experiment: DR7
DRB4 = experiment: DRB4
DRB5 = experiment: DRB5
DR11 = experiment: DR11
DP401 = experiment: DP401

## CC[C@H](C)[C@H](NC(=O)[C@@H](NC(=O)[C@H](CCCCN)NC(=O)CNC(=O)[C@H](CC(C)C)NC(=O)[C@H](CC(N)=O)NC(=O)[C@H](CCCNC(=N)N)NC(=O)[C@H](CCCNC(=N)N)NC(=O)[C@H](CCCNC(=N)N)NC(=O)[C@@H]1CCCN1C(=O)[C@H](CC(=O)O)NC(=O)[C@@H](NC(=O)[C@@H]1CCCN1C(=O)CNC(=O)[C@H](Cc1c[nH]c2ccccc12)NC(=O)[C@H](CO)NC(=O)[C@@H]1CCCN1C(=O)[C@@H](N)CCCNC(=N)N)[C@@H](C)O)C(C)C)C(=O)N[C@@H](CC(=O)O)C(=O)N[C@H](C(=O)N[C@@H](CC(C)C)C(=O)N[C@H](C(=O)N[C@@H](CS)C(=O)NCC(=O)N[C@@H](Cc1ccccc1)C(=O)N[C@@H](C)C(=O)N[C@@H](CC(=O)O)C(=O)N[C@@H](CC(C)C)C(=O)O)[C@@H](C)O)[C@@H](C)O [4C 104-133]
DR3
  IC50: 5170 nM
DR4
  IC50: 1030 nM
DR7
  IC50: 125 nM
DRB4
  IC50: 3330 nM
DRB5
  IC50: 433 nM
DR11
  IC50: 867 nM
DP401
  IC50: 13900 nM
